The list is not random: actives were taken first. Their share in the collection is about 1%.
miR-21 reporter: raises the signal of a miR-21 reporter; HeLa miR-21 FLuc reporter, luciferase, 48 h; Potency, µM (top dose mostly 38.3 µM), for inactives: at the highest dose reporter change, positive = more light; AID 2288; 340,000 tested, under 10 active; active = well fitted rising curve with a large enough effect; inconclusive = small, poorly fitted or top-dose-only effect; inactive = no such curve, though single readings can be large or run the other way;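 note: % of control where 0% means no effect; miR-21 action dims this reporter so a rising signal means less miR-21 action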
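Luminescence from a firefly luciferase reporter carrying a miR-21 binding site downstream, stably expressed under a CMV promoter in HeLa cells that make miR-21 endogenously, reports miRNA modulation after 48 h compound exposure up to approximately 40uM final.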
KinaseGlo FLuc: Kinase-Glo luciferase inhibition (counter-screen) | AID 1379 | hit rate 0.28% among 200,000 | Potency, µM (titrated, usually from 38.3 µM), inactives show at the highest dose activity change, negative = inhibition, usual class: inhibitors | Q27757 | Kinase-Glo luciferase, ATP luminescence, 8 min; also: potency is read from the fitted curve at half-maximal effect; % is scaled to controls: 0 for no effect and ±100 for the full control effect; nearly all actives have a fitted effect of over 60% in size
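Light output from Kinase-Glo luciferase with luciferin and 10 uM ATP in 50 mM imidazole pH 7.2, KCl, MgCl2, Tween 20, BSA; compound pin-delivered, 8-min ambient incubation, then luminescence read.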
gsp agonist: gsp mutant agonism | gsp mutant cells, cAMP HTRF, 30 min | Potency, µM (titrated, usually from 76.9 µM), inactives show top-dose activation (cAMP increase), actives largely listed as activators | hit rate 0.13% among 340,000; active = well fitted activation curve with a large enough effect; inconclusive = small, poorly fitted or top-dose-only effect, or another doubt; inactive = no such curve, though single readings can be large or run the other way; cell line not stated here;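 also: phosphodiesterase inhibitor Ro 20-1724 added with compounds to block cAMP breakdown; potency is read from the fitted curve at half-maximal effect; nearly all actives have a fitted effect of over 60% in size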
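Cells in DMEM/10% FBS with G418 were pretreated with compounds in DMSO plus […] (300 uM stock) for 30 min at 37C. cAMP was measured by HTRF (cAMP-d2 plus anti-cAMP antibody-K) after 30 min at room temperature.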
RXFP1 antag: antagonists of human relaxin receptor RXFP1. Q9HBX9. HEK293-RXFP1, relaxin-stimulated cAMP HTRF, 30 min; stronger effect = lower value. activity change, negative = inhibition, % at 57.5 µM. hit rate 0.59% among 350,000;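 active = activity change of -60% or lower, but not beyond a set lower limit; inconclusive = change between -60% and -40%, or beyond the set limit; inactive = change above -40%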; also: % is scaled to controls: 0 for no effect and ±100 for the full control effect
RXFP1 ag: agonists of human relaxin receptor RXFP1. Q9HBX9. HEK293T-RXFP1 cAMP TR-FRET, 30 min; response scale: percent of porcine relaxin response, buffer zero. Potency, µM (highest dose often 57.5 µM), for the others: top-dose activation, hits mostly activators. hit rate 0.3% among 370,000; also: potency is read from the fitted curve at half-maximal effect; % is scaled to controls: 0 for no effect and ±100 for the full control effect; nearly all actives have a fitted effect of over 60% in size
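Agonist response is measured as cAMP accumulation in an RXFP1-transfected HEK293T line under PDE4 inhibition. Values are scaled between buffer-only and 29 nM porcine relaxin, and EC50s come from standard Hill equation fits.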
gsp antagonist: antagonists of gsp mutant (McCune-Albright syndrome); AID 624288; Potency, µM (series often up to 76.9 µM), without a hit: at the highest dose activity change, negative = inhibition, actives largely listed as inhibitors; gsp-mutant cells, cAMP HTRF, 30 min; hit rate 0.4% among 340,000; calls by dose curve; cell line not stated here;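 also: intracellular cAMP measured with PDE inhibitor Ro 20-1724 present during compound exposure; potency is read from the fitted curve at half-maximal effect; % is scaled to controls: 0 for no effect and ±100 for the full control effect; nearly all actives have a fitted effect of over 65% in size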
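G418-selected cells were plated in DMEM/10% FBS for 16-24 h at 37C, then treated with compounds plus the PDE inhibitor […] (300 uM solution added) for 30 min at 37C. Intracellular cAMP was measured by HTRF after 30 min lysis at room temperature.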
The depositor's hits bear a star; ? = inconclusive; nt = no result given; [ ] = dose if it differs, or a comment. Unless noted, calls follow the shape of the dose curve; as a rule, active = well fitted curve in the direction sought with a large enough effect; inconclusive = small, poorly fitted or top-dose-only effect, or another doubt; inactive = no such curve, though single readings can be large; an effect the other way counts as inactive or inconclusive.

#1 O=C(COc1c(Br)cc(Br)c2cccnc12)N1CCCCC1
#2 O=C(COc1c(Br)cc(Br)c2cccnc12)N1CCc2ccccc2C1
#3 CCOC(=O)c1c(C)[nH]c(C)c1S(=O)(=O)N1CCC(C(=O)Nc2ccccc2CC)CC1
#4 COc1ccccc1OCC(=O)Nc1cc(-c2ccc(C)cc2)no1
#5 CS(=O)(=O)c1ccc(C(=O)OCC(=O)NCc2cccs2)cc1[N+](=O)[O-]

entry no.	1	2	3	4	5
miR-21 reporter	-16%	5%	-6%	-34%	nt
KinaseGlo FLuc	-3%	-6%	nt	nt	nt
gsp agonist	6.3µM*	?	nt	nt	-1%[15.4 µM]
RXFP1 antag	8	-5	nt	-24	-101*
RXFP1 ag	?	18%	0%	-2%	nt
gsp antagonist	-4%	-12%	nt	nt	-3%

#6 O=C(Nc1cccc(S(=O)(=O)C(F)F)c1)c1ccc(Cl)c(S(=O)(=O)N2CCOCC2)c1
#7 O=C(Nc1cccc(Br)c1)c1ccc(Cl)c(S(=O)(=O)N2CCOCC2)c1
#8 O=C(Nc1cccc(C(=O)NC2CC2)c1)c1ccc(Cl)c(S(=O)(=O)N2CCOCC2)c1
#9 O=C(Nc1ccc(Cl)c(S(=O)(=O)N2CCOCC2)c1)c1ccc(OCC2CCCO2)cc1 (stereo not drawn)
#10 Cc1ccccc1C1CC(=O)Oc2ccc(O)cc21 (stereo not drawn)

entry no.	6	7	8	9	10
miR-21 reporter	?	?	nt	?	nt
KinaseGlo FLuc	7%	10%	nt	-2%	2%[39.9 µM]
gsp agonist	11%	-12%	3%	-32%	nt
RXFP1 antag	-26	-29	4	-30	nt
RXFP1 ag	1%	0%	1%	-1%	nt
gsp antagonist	28µM*	40µM*	-10%	32µM*	nt

#11 COc1cccc(-c2cn3nc(C)c(C)nc3n2)c1
#12 Cc1nc2nc(-c3ccc(Cl)cc3)cn2nc1C
#13 Cc1nnc(NC(=O)C2CCN(S(=O)(=O)c3cc([N+](=O)[O-])ccc3Cl)CC2)o1
#14 O=C(NC1CC1)C1CCN(S(=O)(=O)c2cc([N+](=O)[O-])ccc2Cl)CC1
#15 C/C(=N\Nc1cc(C)nc(-c2ccccc2O)n1)c1ccccc1O

entry no.	11	12	13	14	15
miR-21 reporter	-45%	-53%	nt	nt	3%
KinaseGlo FLuc	11µM*	?	nt	nt	nt
gsp agonist	?	-21%	-29%	-28%	23%
RXFP1 antag	9	3	-2	2	13
RXFP1 ag	1%	2%	-2%	3%	-1%
gsp antagonist	7%	10%	35µM*	-12%	45µM*

#16 Cc1cc(N/N=C\c2ccccc2)nc(-c2ccccc2O)n1
#17 Cc1ccc(NC(=O)c2nc[nH]c2C(=O)N[C@@H](C)C(=O)OC(C)(C)C)cc1
#18 COc1ccc(NC(=O)c2nc[nH]c2C(=O)N[C@@H](C)C(=O)OC(C)(C)C)cc1
#19 O=C(c1cnc(N2CCOCC2)c2ccccc12)N1CCN(c2ccc(F)cc2)CC1
#20 Cc1nn(-c2ccc(N3CCCCC3)nn2)c(C)c1CCC(=O)NCc1ccc(Cl)cc1

entry no.	16	17	18	19	20
miR-21 reporter	9%	19%	-5%	10%	?
KinaseGlo FLuc	-3%	nt	nt	nt	nt
gsp agonist	-8%[15.4 µM]	nt	13µM*	nt	nt
RXFP1 antag	-18	nt	nt	-35	-2
RXFP1 ag	-1%	0%	0%	4%	0%
gsp antagonist	-12%	-17%	3%	nt	nt

#21 CN1CCN(N)CC1
#22 O=C(NCCSCc1ccco1)Nc1cc(Cl)cc(Cl)c1
#23 O=C(CSCc1ccc(Cl)cc1)NCCSCc1ccco1
#24 CCc1ccc(NC(=O)CN(c2ccc(OC)cc2)S(=O)(=O)c2c(C)nn(C)c2C)cc1
#25 C=C1N(C)c2cc([N+](=O)[O-])c(N)cc2C1(C)C

entry no.	21	22	23	24	25
miR-21 reporter	nt	-2%	3%	4%	6%
KinaseGlo FLuc	nt	nt	nt	nt	-7%
gsp agonist	nt	5%	8%[15.4 µM]	?	-11%[15.4 µM]
RXFP1 antag	11	-71*	-24	-113*	-71*
RXFP1 ag	nt	1%	-1%	-1%	-4%
gsp antagonist	nt	?	-1%	-19%	28µM*

#26 O=C(CNC(=O)N1CC(=O)Nc2ccccc21)Nc1ccc(Cl)cc1
#27 O=C(CNC(=O)N1CC(=O)Nc2ccccc21)NCc1ccccc1
#28 O=C(CNC(=O)N1CC(=O)Nc2ccccc21)NCc1ccccc1Cl
#29 O=C(CCNC(=O)N1CC(=O)Nc2ccccc21)Nc1ccc(Cl)cc1
#30 CCOC(=O)CNC(=O)CSc1nc2c(C)cccc2cc1CC

entry no.	26	27	28	29	30
miR-21 reporter	-1%	0%	-3%	0%	0%
KinaseGlo FLuc	nt	nt	nt	nt	2%
gsp agonist	-55%	?	-1%	7%	?
RXFP1 antag	-61*	4	-61*	3	15
RXFP1 ag	1%	1%	-1%	4%	14µM*
gsp antagonist	-10%	11%	4%	-5%	8%

#31 CCOC(=O)CNC(=O)CSc1nc(-c2ccccc2)ns1
#32 CCc1cc2cccc(C)c2nc1SCC(=O)NC1CCCC1
#33 C=CCn1c(SCC(=O)NCC(=O)OCC)nnc1-c1cccc(OC)c1
#34 CCOC(=O)CNC(=O)CSc1nnc(-c2cccc(C)c2)n1-c1ccc(OC)cc1
#35 CCOC(=O)CNC(=O)CSc1nc(-c2ccc(C)cc2)ns1

entry no.	31	32	33	34	35
miR-21 reporter	-2%	2%	0%	-1%	-1%
KinaseGlo FLuc	1%	nt	21%	-1%	-3%
gsp agonist	-16%[15.4 µM]	14%	-24%	-5%	-29%[15.4 µM]
RXFP1 antag	-7	-2	-1	-2	-12
RXFP1 ag	-1%	?	0%	1%	1%
gsp antagonist	-1%	-20%	0%	6.3µM*	11µM*

#36 Cc1cccc2cc(C#N)c(SCC(=O)NCc3cccs3)nc12
#37 Nc1nc(=O)n([C@@H]2O[C@H](CO)[C@@H](O)[C@@H]2F)cc1I
#38 Cc1ccc(C(=O)O)cc1NC(=O)C1=CSCCO1
#39 O=C(COCc1cc(-c2ccc3c(c2)OCO3)on1)Nc1cc(Cl)ccc1O
#40 CCOc1ccc(-c2cc(OC(=O)c3ccccc3)c3c(C)oc(C)c3c(=O)c2)cc1

entry no.	36	37	38	39	40
miR-21 reporter	-4%	nt	-2%	0%	0%
KinaseGlo FLuc	3%	nt	nt	nt	nt
gsp agonist	?	nt	13%	nt	nt
RXFP1 antag	1	3	-110*	-10	-11
RXFP1 ag	13µM*	nt	0%	0%	6%
gsp antagonist	-5%	nt	-4%	nt	nt

#41 COc1cc(-c2cc(OC)c3c(C)oc(C)c3c(=O)c2)ccc1OC(=O)c1ccccc1C
#42 COc1cc(-c2cc(OC)c3c(C)oc(C)c3c(=O)c2)ccc1OC(=O)c1cccc(Cl)c1
#43 COc1cc(-c2cc(OC)c3c(C)oc(C)c3c(=O)c2)ccc1OC(=O)c1ccc(C)cc1
#44 CCOc1cc(-c2ccc(OC(=O)c3ccccc3F)cc2)cc(=O)c2c(C)oc(C)c12
#45 CCOc1cc(-c2ccc(OC(=O)c3ccc(C)cc3)c(OC)c2)cc(=O)c2c(C)oc(C)c12

entry no.	41	42	43	44	45
miR-21 reporter	15%	-1%	2%	5%	-11%
KinaseGlo FLuc	nt	nt	nt	nt	nt
gsp agonist	nt	nt	nt	nt	nt
RXFP1 antag	-65*	-76*	?	-97*	-64*
RXFP1 ag	-3%	-2%	0%	-2%	1%
gsp antagonist	nt	nt	nt	nt	nt

#46 CCCCN(CC)CCNC(=O)c1cc2c(=O)oc3ccc(C)cc3c2s1
#47 COC(=O)C(C)Sc1ccc2nnc(-c3ccccc3)n2n1 (stereo not drawn)
#48 CCOC(=O)CC(=O)CSc1ccc2nnc(-c3ccccc3)n2n1
#49 Cc1ccc(-c2nnc3ccc(SC(C)C(=O)O)nn23)cc1 (stereo not drawn)

entry no.	46	47	48	49
miR-21 reporter	-1%	-2%	-2%	-3%
KinaseGlo FLuc	nt	1%	4%	-2%
gsp agonist	nt	10µM*	?	10µM*
RXFP1 antag	nt	0	49	nt
RXFP1 ag	1%	25µM*	?	?
gsp antagonist	nt	1%	7%	15%

RXFP1 ag: hit marks shown above
no. | mol | miR-21 reporter | gsp agonist | RXFP1 antag | RXFP1 ag | gsp antagonist
30 | CCOC(=O)CNC(=O)CSc1nc2c(C)cccc2cc1CC | 0% | ? | 15 | 14µM* | 8%
36 | Cc1cccc2cc(C#N)c(SCC(=O)NCc3cccs3)nc12 | -4% | ? | 1 | 13µM* | -5%
47 | COC(=O)C(C)Sc1ccc2nnc(-c3ccccc3)n2n1 (stereo not drawn) | -2% | 10µM* | 0 | 25µM* | 1%

Screens: PubChem BioAssay, National Center for Advancing Translational Sciences (NCATS)
